Test results from PubChem BioAssay (NCI).
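Method: 48-hour compound exposure of cells in 96-well plates, five concentrations, linear interpolation of endpoints. GI50 marks 50% less growth. TGI: concentration producing complete growth inhibition.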

Tests used:
Test in all cases: growth of human tumour cells (NCI), 48 h
[1] = tested on: SK-MEL-5 melanoma
[2] = tested on: NCI-H322M lung
[3] = tested on: A498 renal
[4] = tested on: UACC-62 melanoma
[5] = tested on: HOP-92 NSCLC
[6] = tested on: MALME-3M melanoma
[7] = tested on: SF-268 CNS
[8] = tested on: OVCAR-3 ovarian
[9] = tested on: COLO 205 colon
[10] = tested on: UACC-257 melanoma
[11] = tested on: CAKI-1 renal
[12] = tested on: HL-60(TB) leukemia
[13] = tested on: SW-620 colon
[14] = tested on: BT-549 breast
[15] = tested on: RPMI-8226 leukemia
[16] = tested on: T-47D breast
[17] = tested on: U251 CNS
[18] = tested on: CCRF-CEM leukemia
[19] = tested on: UO-31 renal
[20] = tested on: HCT-116 colon
[21] = tested on: HCC-2998 colon
[22] = tested on: SF-539 CNS
[23] = tested on: PC-3 prostate
[24] = tested on: KM12 colon
[25] = tested on: IGROV1 ovarian
[26] = tested on: A549 NSCLC
[27] = tested on: SF-295 CNS
[28] = tested on: NCI-H522 lung
[29] = tested on: MDA-MB-435
[30] = tested on: NCI-H23 lung
[31] = tested on: OVCAR-4 ovarian
[32] = tested on: HOP-62 NSCLC
[33] = tested on: K-562 leukemia
[34] = tested on: ACHN renal
[35] = tested on: SNB-75 CNS
[36] = tested on: DU-145 prostate
[37] = tested on: OVCAR-8 ovarian
[38] = tested on: EKVX NSCLC
[39] = tested on: MCF7 breast
[40] = tested on: RXF 393 renal
[41] = tested on: 786-0 renal
[42] = tested on: NCI-H226 lung
[43] = tested on: MOLT-4 leukemia
[44] = tested on: NCI-H460 lung
[45] = tested on: SK-MEL-28 melanoma
[46] = tested on: M14 melanoma
[47] = tested on: NCI/ADR-RES ovarian
[48] = tested on: SNB-19 CNS
[49] = tested on: SK-OV-3 ovarian
[50] = tested on: TK-10 renal
[51] = tested on: OVCAR-5 ovarian
[52] = tested on: HS 578T breast
[53] = tested on: HT29 colon
[54] = tested on: HCT-15 colon

SMILES: CC[As](CC)SCC(O)CO (configuration not stated)
- GI50 [1]: 221 nM
- TGI [1]: 602 nM
- GI50 [2]: 3480 nM
- TGI [2]: 11200 nM
- GI50 [3]: 1760 nM
- TGI [3]: 5780 nM
- GI50 [4]: 213 nM
- TGI [4]: 6200 nM
- GI50 [5]: 606 nM
- TGI [5]: 4020 nM
- GI50 [6]: 915 nM
- TGI [6]: 2850 nM
- GI50 [7]: 549 nM
- TGI [7]: 3580 nM
- GI50 [8]: 118 nM
- TGI [8]: 11100 nM
- GI50 [9]: 287 nM
- TGI [9]: 13100 nM
- GI50 [10]: 621 nM
- TGI [10]: 2430 nM
- GI50 [11]: 633 nM
- TGI [11]: 2310 nM
- GI50 [12]: 103 nM
- TGI [12]: 3230 nM
- GI50 [13]: 56.6 nM
- TGI [13]: 264 nM
- GI50 [14]: 559 nM
- TGI [14]: 2160 nM
- GI50 [15]: 93.2 nM
- TGI [15]: 394 nM
- GI50 [16]: 5650 nM
- TGI [16]: 43600 nM
- GI50 [17]: 518 nM
- TGI [17]: 2030 nM
- GI50 [18]: 309 nM
- TGI [18]: > 100000 nM
- GI50 [19]: 516 nM
- TGI [19]: 3410 nM
- GI50 [20]: 316 nM
- TGI [20]: 11200 nM
- GI50 [21]: 985 nM
- TGI [21]: 2200 nM
- GI50 [22]: 262 nM
- TGI [22]: 2420 nM
- GI50 [23]: 377 nM
- TGI [23]: 9960 nM
- GI50 [24]: 1330 nM
- TGI [24]: 7460 nM
- GI50 [25]: 578 nM
- TGI [25]: 21400 nM
- GI50 [26]: 1260 nM
- TGI [26]: 2870 nM
- GI50 [27]: 4980 nM
- TGI [27]: 24200 nM
- GI50 [28]: 152 nM
- TGI [28]: 1310 nM
- GI50 [29]: 250 nM
- TGI [29]: 1640 nM
- GI50 [30]: 112 nM
- TGI [30]: 5760 nM
- GI50 [31]: 900 nM
- TGI [31]: 47600 nM
- GI50 [32]: 2150 nM
- TGI [32]: 6570 nM
- GI50 [33]: 63.5 nM
- TGI [33]: 3460 nM
- GI50 [34]: 356 nM
- TGI [34]: 1430 nM
- GI50 [35]: 2920 nM
- TGI [35]: > 100000 nM
- GI50 [36]: 195 nM
- TGI [36]: 1810 nM
- GI50 [37]: 416 nM
- TGI [37]: 2410 nM
- GI50 [38]: 970 nM
- TGI [38]: 5920 nM
- GI50 [39]: 334 nM
- TGI [39]: 9510 nM
- GI50 [40]: 212 nM
- TGI [40]: 1330 nM
- GI50 [41]: 401 nM
- TGI [41]: 1820 nM
- TGI [42]: 1920 nM
- GI50 [43]: 185 nM
- TGI [43]: 6610 nM
- GI50 [44]: 3160 nM
- TGI [44]: 25200 nM
- GI50 [45]: 450 nM
- TGI [45]: 7900 nM
- GI50 [46]: 337 nM
- TGI [46]: 8990 nM
- GI50 [47]: 489 nM
- TGI [47]: 7720 nM
- GI50 [48]: 2580 nM
- TGI [48]: 34600 nM
- GI50 [49]: 1120 nM
- TGI [49]: 14800 nM
- GI50 [50]: 240 nM
- TGI [50]: 1120 nM
- GI50 [51]: 1690 nM
- TGI [51]: 4000 nM
- GI50 [52]: 330 nM
- TGI [52]: 2210 nM
- GI50 [53]: 344 nM
- TGI [53]: 18700 nM
- GI50 [54]: 45.9 nM
- TGI [54]: 906 nM
